Test results published in ChEMBL document CHEMBL4028887, “Improvement of Cell Permeability of Human Neuronal Nitric Oxide Synthase Inhibitors Using Potent and Selective 2-Aminopyridine-Based Scaffolds with a Fluorobenzene Linker” (J Med Chem, 2017).

Molecular target: T1, Nitric oxide synthase 3 (Homo sapiens, UniProt P29474)
T1 sequence (P29474 whole entry): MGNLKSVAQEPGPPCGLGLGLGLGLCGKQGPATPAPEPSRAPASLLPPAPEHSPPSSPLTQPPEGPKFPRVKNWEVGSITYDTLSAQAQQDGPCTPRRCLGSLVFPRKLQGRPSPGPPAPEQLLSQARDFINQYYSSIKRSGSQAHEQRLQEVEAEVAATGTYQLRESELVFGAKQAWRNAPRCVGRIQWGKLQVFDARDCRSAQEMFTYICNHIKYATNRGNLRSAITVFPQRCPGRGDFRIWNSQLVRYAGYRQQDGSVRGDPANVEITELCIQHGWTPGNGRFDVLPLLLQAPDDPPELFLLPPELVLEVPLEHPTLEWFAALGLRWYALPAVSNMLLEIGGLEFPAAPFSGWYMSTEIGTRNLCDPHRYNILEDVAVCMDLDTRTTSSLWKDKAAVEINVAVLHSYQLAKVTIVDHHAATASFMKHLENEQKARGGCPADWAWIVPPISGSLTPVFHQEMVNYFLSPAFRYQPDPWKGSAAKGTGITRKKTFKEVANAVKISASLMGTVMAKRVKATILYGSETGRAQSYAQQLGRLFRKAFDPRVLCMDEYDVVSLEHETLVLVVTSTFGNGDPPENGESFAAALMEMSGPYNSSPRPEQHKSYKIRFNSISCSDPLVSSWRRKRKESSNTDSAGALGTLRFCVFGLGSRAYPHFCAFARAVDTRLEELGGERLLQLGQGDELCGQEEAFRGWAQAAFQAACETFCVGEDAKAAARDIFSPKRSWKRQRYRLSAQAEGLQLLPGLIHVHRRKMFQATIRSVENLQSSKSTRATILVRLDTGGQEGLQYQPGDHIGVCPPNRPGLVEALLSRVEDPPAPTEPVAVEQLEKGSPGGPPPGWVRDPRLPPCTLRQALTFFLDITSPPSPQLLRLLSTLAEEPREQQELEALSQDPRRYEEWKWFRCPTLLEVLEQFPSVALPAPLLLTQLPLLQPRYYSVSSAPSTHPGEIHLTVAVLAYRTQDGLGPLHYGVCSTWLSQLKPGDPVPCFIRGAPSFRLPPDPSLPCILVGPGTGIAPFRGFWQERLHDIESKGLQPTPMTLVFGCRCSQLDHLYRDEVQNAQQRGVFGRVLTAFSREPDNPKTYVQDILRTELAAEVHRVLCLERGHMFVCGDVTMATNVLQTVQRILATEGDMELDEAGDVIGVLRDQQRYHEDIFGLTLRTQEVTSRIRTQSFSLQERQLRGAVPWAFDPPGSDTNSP
Type: ADME

Ki: 68.5 µM
SMILES: CNCc1ccc(-c2cncc(CCc3cc(C)cc(N)n3)c2)cc1
